Measured values reported in patent US20220280450A1, “PREVENTION AND TREATMENT OF CORONAVIRUS AND RELATED RESPIRATORY INFECTIONS” (PhilERA New Zealand Ltd., priority 2021, published 2022).

Conditions: in vivo

NCCNCCNCCN [TETA, triethylenetetramine]
SL · ER0, slope between TETA and Cu excretion rate: 24.3 (17.4) (mg/L)^−1 · (μg/h)
